Results taken from US20160046672A1, “STAPLING eIF4E INTERACTING PEPTIDES” (AGENCY FOR SCIENCE, TECHNOLOGY AND RESEARCH, priority 2013, published 2016).

Amino acid sequences for entries named in this document (tags omitted).
UniProt P06730, whole entry: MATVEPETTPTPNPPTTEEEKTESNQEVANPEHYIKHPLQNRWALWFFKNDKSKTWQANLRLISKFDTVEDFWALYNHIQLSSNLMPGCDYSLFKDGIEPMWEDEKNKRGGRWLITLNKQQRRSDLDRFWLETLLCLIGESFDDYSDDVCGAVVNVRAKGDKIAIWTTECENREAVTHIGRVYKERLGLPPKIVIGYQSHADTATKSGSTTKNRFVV

Tests used:
[1] = circular dichroism; conditions: 5 mM sodium phosphate; pH 7.0; ns °C; 0.5 or 2 mg/mL
[2] = Circular dichroism, percent α-helicity in solution; type: physicochemical; conditions: CD, 5 mM sodium phosphate buffer pH 7.0
Experimental: CD was measured on a JASCO J-810 spectropolarimeter, and spectra were either recorded with a quartz cuvette (Helmer) with a pathlength of 0.01 cm or 0.1 cm in 5 mM sodium phosphate buffer (pH 7.0). FUV CD spectra were recorded from 260 nm to 200 nm at a peptide concentration of either 2 mg/ml or 0.5 mg/ml, respectively. The CD signal was converted into mean residue ellipticity in units of degree·cm^2·dmol^−1·residue^−1. CD spectra were recorded at a data pitch of 0.2 nm at 50 nm min^−1, a response time of 2 s, and a bandwidth of […]. Once converted to mean residue ellipticity, percent α-helicity can be calculated with equation (1) and (2): […]

[3] = biological target: T1, eIF4E (Homo sapiens, UniProt P06730); test: eIF4E affinity (SPR/FP, method not named); type: binding
T1 construct: made in house
Experimental: Apparent Kd values were determined for a variety of molecules via competitive anisotropy anisotropy experiments. Titrations were carried out with the concentrations eIF4E held constant at 200 nM, respectively and the labeled peptide at 50 nM. The competing molecules were then titrated against complex of the FAM labeled peptide and protein. Apparent Kd values were determined by fitting the experimental data to the equations shown below: […]
Six buffer blanks were first injected to equilibrate the instrument fully and then a solvent correction curve was performed followed by a further two blank injections. […] Using a flow rate of 50 μl/min, compounds were injected for 60 s and dissociation was monitored for 180 s. The data collection rate was 10 Hz. Kds were determined using the BiaEvaluation software (Biacore) and calculated kinetically from the dissociation and association phase data for each of the peptides. The kinetic data were fitted to 1:1 binding models. Each individual peptide Kd was determined from three separate titrations. Within each titration at least two concentration points were duplicated to ensure stability and robustness of the chip surface.

CC(=O)N[C@@H](CCCCN)C(=O)N[C@@H](CCCCN)C(=O)N[C@@H](CCCNC(=N)N)C(=O)N[C@@H](Cc1ccc(O)cc1)C(=O)N[C@@H](CO)C(=O)N[C@@H](CCCNC(=N)N)C(=O)N[C@@H](CCC(=O)O)C(=O)NC(C)(C)C(=O)N[C@@H](CC(C)C)C(=O)N[C@@H](CC(C)C)C(=O)NC(C)(C)C(=O)N[C@@H](Cc1ccccc1)C(N)=O [TIP-03, KKRYSREXLLXF]
helicity [1]: 0%
Helicity (%) [2]: 0%
affinity / binding to eIF4E (in words) [3]: only slightly attenuates binding with eIF4E
